Source: patent publication US9802996B2, “Glycosylated polypeptide and drug composition containing said polypeptide” (Glytech, Inc., priority 2011, dated 2017)
Where “and” joins values, the source holds several entries; their conditions need not be identical. Equal values may be shown once. Read-outs that look alike come from different tables or passages of the source.

By UniProt entry, the sequences of proteins in these tests, tags left out. Where a name states a change or a piece, a line headed by the entry shows the natural chain unless it says otherwise.
UniProt P31391: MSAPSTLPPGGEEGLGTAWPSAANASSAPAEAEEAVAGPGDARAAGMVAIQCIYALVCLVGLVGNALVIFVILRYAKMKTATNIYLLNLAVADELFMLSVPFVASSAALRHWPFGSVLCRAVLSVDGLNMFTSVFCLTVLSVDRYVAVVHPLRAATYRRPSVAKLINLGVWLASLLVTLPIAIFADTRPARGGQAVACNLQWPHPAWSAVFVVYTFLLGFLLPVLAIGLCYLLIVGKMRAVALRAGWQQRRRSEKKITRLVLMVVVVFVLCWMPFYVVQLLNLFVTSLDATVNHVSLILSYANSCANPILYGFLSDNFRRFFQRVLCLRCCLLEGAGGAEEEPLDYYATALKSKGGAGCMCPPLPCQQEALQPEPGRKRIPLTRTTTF
UniProt P30874: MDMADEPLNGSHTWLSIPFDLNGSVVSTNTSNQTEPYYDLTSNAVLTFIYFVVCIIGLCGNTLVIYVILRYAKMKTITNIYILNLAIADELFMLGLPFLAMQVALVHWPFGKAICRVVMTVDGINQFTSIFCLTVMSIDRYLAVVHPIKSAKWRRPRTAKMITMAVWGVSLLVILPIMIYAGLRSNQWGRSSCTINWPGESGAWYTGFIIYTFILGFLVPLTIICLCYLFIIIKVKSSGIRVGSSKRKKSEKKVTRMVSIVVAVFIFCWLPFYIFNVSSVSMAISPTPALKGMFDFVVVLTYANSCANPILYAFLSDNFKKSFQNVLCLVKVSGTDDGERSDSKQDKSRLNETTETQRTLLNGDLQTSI
UniProt P32745: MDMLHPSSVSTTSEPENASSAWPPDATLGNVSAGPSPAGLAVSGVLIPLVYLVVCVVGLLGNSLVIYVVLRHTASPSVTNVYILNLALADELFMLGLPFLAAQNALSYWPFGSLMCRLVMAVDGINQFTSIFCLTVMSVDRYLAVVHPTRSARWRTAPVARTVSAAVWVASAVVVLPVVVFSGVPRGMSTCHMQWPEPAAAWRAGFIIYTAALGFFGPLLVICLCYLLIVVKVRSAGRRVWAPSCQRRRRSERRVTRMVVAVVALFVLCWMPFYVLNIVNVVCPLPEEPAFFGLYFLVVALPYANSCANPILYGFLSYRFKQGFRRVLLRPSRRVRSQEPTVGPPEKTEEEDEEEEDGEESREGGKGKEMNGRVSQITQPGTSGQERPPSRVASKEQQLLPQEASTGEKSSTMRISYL

Legend:
SSTR4 = SSTR4 (Homo sapiens, UniProt P31391); assay: Competitive binding assay with [125I]Tyr11-Somatostatin 14, SSTR4
SSTR2 = SSTR2 (Homo sapiens, UniProt P30874); assay: Competitive binding assay with [125I]Tyr11-Somatostatin 14, SSTR2; conditions: read-out: Ki value against SSTR2; Example 69-2, Table 3B
SSTR3 = SSTR3 (Homo sapiens, UniProt P32745); assay: Competitive binding assay with [125I]Tyr11-Somatostatin 14, SSTR3; conditions: read-out: Ki value against SSTR3; Example 69-2, Table 3B
[1] = Pharmacokinetics test with rats (intravenous and subcutaneous administration); conditions: for AUC increase compared to the non-glycosylated form SRIF28 / t1/2 extension compared to the non-glycosylated form SRIF28 / AUC increase compared to the non-glycosylated form SRIF14 / t1/2 extension compared to the non-glycosylated form SRIF14: administered intravenously; for increase in half-life in blood: as measured in the method of Example 70; for bioavailability (BA): subcutaneous vs intravenous AUC; for MRT / T1/2: Tables 5B-5F (unit not given; Table 5A: min)
[2] = Example 69-2, Table 3B; read-out: Ki value against SSTR4
[3] = read-out: Ki value against SSTR4; Example 69-2, Table 3B
[4] = rats, intravenous administration, Tables 5B-5F (unit not given; Table 5A: min · nM)
[5] = rats, intravenous administration, Tables 5B-5F (unit not given; Table 5A: nM)
[6] = rats, intravenous administration, Table 5A
[7] = rats, subcutaneous administration, Table 5A
[8] = rats, intravenous administration

## S1N(disialo)•N19C(diMan)-SRIF28 [Example 66]
SSTR4; [2]
  Ki: 1.39 to 172 nM
SSTR2
  Ki: 0.0536 to 6.58 nM
SSTR3
  Ki: 0.16 to 13.8 nM

## S1-2C(disialo(Bn))-SRIF28 [Example 64]
SSTR4; [3]
  Ki: 1.39 to 172 nM
SSTR2
  Ki: 0.0536 to 6.58 nM
[1]; rats
  AUC increase compared to the non-glycosylated form SRIF28: 6-12 folds
  t1/2 extension compared to the non-glycosylated form SRIF28: 6-21 folds
SSTR3
  Ki: 0.16 to 13.8 nM

## S1C(disialo(aminoethylamide))-SRIF28 [Example 59]
SSTR4; [3]
  Ki: 1.39 to 172 nM
SSTR2
  Ki: 0.0536 to 6.58 nM
[1]; rats
  AUC increase compared to the non-glycosylated form SRIF28: 7-12 folds
  t1/2 extension compared to the non-glycosylated form SRIF28: 11-14 folds
SSTR3
  Ki: 0.16 to 13.8 nM

## 3C(disialo)-R-K-SRIF14 [Example 51]
SSTR4; Example 69-2
  Ki value against SSTR4, folds that of SRIF14: ≥ 46 folds

## 2C(disialo)-R-K-SRIF14 [Example 50]
SSTR4; [3]
  Ki: 1.39 to 172 nM
SSTR2
  Ki: 0.0536 to 6.58 nM
SSTR3
  Ki: 0.16 to 13.8 nM

## S1C(disialo)-F25Y-SRIF28 [Example 43]
SSTR4; [3]
  Ki: 1.39 to 172 nM
SSTR2
  Ki: 0.0536 to 6.58 nM
[1]; [4]
  AUC: 3538
[1]; [5]
  C0: 412
[1]; rats, subcutaneous administration, Tables 5B-5F (unit not given; Table 5A: min · nM)
  AUC: 2725
[1]; rats, subcutaneous administration, Tables 5B-5F (unit not given; Table 5A: nM)
  Cmax: 47.8
SSTR3
  Ki: 0.16 to 13.8 nM

## N5C(disialo)-SRIF28 [Example 2]
[1]; [6]
  AUC: 4421 ± 1366 nM·min
  C0: 496 ± 312 nM
[1]; [7]
  AUC: 2392 ± 443 nM·min
  Cmax: 32.4 ± 4.87 nM

## C(disialo(aminoethylamide))/S1C(disialo)-SRIF28 [Example 67]
[1]; rats
  AUC increase compared to the non-glycosylated form SRIF28: 6-12 folds
  t1/2 extension compared to the non-glycosylated form SRIF28: 6-21 folds

## R11C(disialo)-SRIF28 [Example 37]
SSTR4; [2]
  Ki: 1.39 to 172 nM
SSTR2
  Ki: 0.0536 to 6.58 nM
SSTR3
  Ki: 0.16 to 13.8 nM

## S27C(disialo)-SRIF28 [Example 41]
SSTR4; [2]
  Ki: 1.39 to 172 nM
SSTR2
  Ki: 0.0536 to 6.58 nM
SSTR3
  Ki: 0.16 to 13.8 nM

## G16C(disialo)-SRIF28 [Example 8]
SSTR4; [2]
  Ki: 1.39 to 172 nM
SSTR2
  Ki: 0.0536 to 6.58 nM
SSTR3
  Ki: 0.16 to 13.8 nM

## S1C(disialo)-D-Trp22-SRIF28 [Example 15]
[1]; rats
  AUC increase compared to the non-glycosylated form SRIF28: 8-23 folds
  t1/2 extension compared to the non-glycosylated form SRIF28: 13-18 folds

## S1C(disialo)•N5C(disialo)-SRIF28 [Example 21]
[1]
  increase in half-life in blood: ≥ 25 folds
[1]; [6]
  AUC: 4099 ± 634 nM·min
  C0: 558 ± 248 nM
[1]; rats, intravenous, 40 nmol/kg
  AUC, intravenous administration: 4029 to 4465 nM·min
[1]; rats
  AUC for subcutaneous administration, folds of S1C(disialo)-SRIF28: 1.8-3.1 folds
  bioavailability (BA): 77-85%
[1]; [7]
  AUC: 3344 ± 663 nM·min
  Cmax: 35.5 ± 6.38 nM

## S1-2C(disialo)-SRIF28 [Example 20]
[1]; rats
  AUC increase compared to the non-glycosylated form SRIF28: 12 folds and 6-12 folds
  bioavailability (BA): 55%
[1]; [6]
  AUC: 7306 ± 625 nM·min
  C0: 1382 ± 321 nM
[1]; [8]
  MRT: 23.0
  T1/2: 28.2
[1]; [7]
  AUC: 4046 ± 248 nM·min
  Cmax: 46.3 ± 9.75 nM
[1]; rats, subcutaneous administration
  MRT: 65.3

## S1C(asialo)-SRIF28 [Example 27]
SSTR4; [3]
  Ki: 1.39 to 172 nM
SSTR2
  Ki: 0.0536 to 6.58 nM
SSTR3
  Ki: 0.16 to 13.8 nM

## R13C(disialo)-SRIF28 [Example 5]
[1]; rats
  AUC increase compared to the non-glycosylated form SRIF28: 8-23 folds
  t1/2 extension compared to the non-glycosylated form SRIF28: 13-18 folds
  AUC for subcutaneous administration, folds of S1C(disialo)-SRIF28: 1.8-3.1 folds

## 29C(disialo)-SRIF28 [Example 13]
[1]; rats
  AUC increase compared to the non-glycosylated form SRIF28: 8-23 folds
  t1/2 extension compared to the non-glycosylated form SRIF28: 13-18 folds

## S1C(Asn(disialo))-SRIF28 [Example 65]
SSTR4; [2]
  Ki: 1.39 to 172 nM
SSTR2
  Ki: 0.0536 to 6.58 nM
SSTR3
  Ki: 0.16 to 13.8 nM

## K18C(disialo)-SRIF28 [Example 9]
SSTR4; [2]
  Ki: 1.39 to 172 nM
SSTR2
  Ki: 0.0536 to 6.58 nM
SSTR3
  Ki: 0.16 to 13.8 nM

## E12C(disialo)-SRIF28 [Example 4]
[1]; rats
  AUC increase compared to the non-glycosylated form SRIF28: 8-23 folds
  t1/2 extension compared to the non-glycosylated form SRIF28: 13-18 folds

## S1C(disialo)•E12C(disialo)-SRIF28 [Example 49]
SSTR4; [2]
  Ki: 1.39 to 172 nM
SSTR2
  Ki: 0.0536 to 6.58 nM
SSTR3
  Ki: 0.16 to 13.8 nM

## C(disialo)-SRIF28 [Example 36]
SSTR4; [2]
  Ki: 1.39 to 172 nM
SSTR2
  Ki: 0.0536 to 6.58 nM
SSTR3
  Ki: 0.16 to 13.8 nM

## Biotin-PEG linker-S1C(disialo)-SRIF28 [Example 47]
SSTR4; [2]
  Ki: 1.39 to 172 nM
SSTR2
  Ki: 0.0536 to 6.58 nM
SSTR3
  Ki: 0.16 to 13.8 nM

## S1C(disialo (hexadecylamide))-SRIF28 [Example 62]
SSTR4; [2]
  Ki: 1.39 to 172 nM
SSTR2
  Ki: 0.0536 to 6.58 nM
SSTR3
  Ki: 0.16 to 13.8 nM

## C(disialo)-SRIF14 [Example 17]
[1]; rats
  AUC increase compared to the non-glycosylated form SRIF14: 44-55 folds
  t1/2 extension compared to the non-glycosylated form SRIF14: 33-38 folds

## N19C(diMan)-SRIF28 [Example 54]
SSTR4; [2]
  Ki: 1.39 to 172 nM
SSTR2
  Ki: 0.0536 to 6.58 nM
SSTR3
  Ki: 0.16 to 13.8 nM

## Azido-S1C(disialo)-SRIF28 [Example 48]
SSTR4; [2]
  Ki: 1.39 to 172 nM
SSTR2
  Ki: 0.0536 to 6.58 nM
SSTR3
  Ki: 0.16 to 13.8 nM

## S1C(disialo)•N5C(disialo)•A9C(disialo)-SRIF28 [Example 25]
[1]
  increase in half-life in blood: ≥ 30 folds
[1]; [6]
  AUC: 4402 ± 999 nM·min
  C0: 938 ± 145 nM
[1]; rats
  AUC for subcutaneous administration, folds of S1C(disialo)-SRIF28: 1.8-3.1 folds
  bioavailability (BA): 91%
[1]; [7]
  AUC: 4015 ± 944 nM·min
  Cmax: 24.8 ± 9.03 nM

## N19C(disialo)-SRIF28 [Example 10]
[1]; rats
  AUC increase compared to the non-glycosylated form SRIF28: 8-23 folds
  t1/2 extension compared to the non-glycosylated form SRIF28: 13-18 folds

## S1C(GlcNAc)-SRIF28 [Example 55]
SSTR4; [3]
  Ki: 1.39 to 172 nM
SSTR2
  Ki: 0.0536 to 6.58 nM
SSTR3
  Ki: 0.16 to 13.8 nM

## Biotin-S1C(disialo)-SRIF28 [Example 46]
SSTR4; [2]
  Ki: 1.39 to 172 nM
SSTR2
  Ki: 0.0536 to 6.58 nM
SSTR3
  Ki: 0.16 to 13.8 nM

## S1-4C(disialo)-SRIF28 [Example 68]
SSTR4; [3]
  Ki: 1.39 to 172 nM
SSTR2
  Ki: 0.0536 to 6.58 nM
SSTR3
  Ki: 0.16 to 13.8 nM

## S1C(tetrasialo)-SRIF28 [Example 58]
SSTR4; [2]
  Ki: 1.39 to 172 nM
SSTR2
  Ki: 0.0536 to 6.58 nM
SSTR3
  Ki: 0.16 to 13.8 nM

## C(disialo)-R-K-SRIF14 [Example 18]
[1]; rats
  AUC increase compared to the non-glycosylated form SRIF14: 44-55 folds and 55 folds
  t1/2 extension compared to the non-glycosylated form SRIF14: 33-38 folds and 38 folds

## K14C(disialo)-SRIF28 [Example 6]
[1]; rats
  AUC increase compared to the non-glycosylated form SRIF28: 8-23 folds
  t1/2 extension compared to the non-glycosylated form SRIF28: 13-18 folds
  AUC for subcutaneous administration, folds of S1C(disialo)-SRIF28: 1.8-3.1 folds

## S1C(diMan)-SRIF28 [Example 53]
SSTR4; [3]
  Ki: 1.39 to 172 nM
SSTR2
  Ki: 0.0536 to 6.58 nM
SSTR3
  Ki: 0.16 to 13.8 nM

## S1-3C(disialo)-SRIF28 [Example 24]
[1]; rats
  AUC increase compared to the non-glycosylated form SRIF28: 12 folds
  t1/2 extension compared to the non-glycosylated form SRIF28: 30 folds
  bioavailability (BA): 69%
[1]; [6]
  AUC: 5660 ± 1354 nM·min
  C0: 1061 ± 209 nM
[1]; [4]
  AUC: 5834
[1]; [8]
  T1/2: 39.5
[1]; [5]
  C0: 1083
[1]; [7]
  AUC: 3884 ± 543 nM·min
  Cmax: 27.5 ± 10.8 nM

## S1C(diGlcNAc)-SRIF28 [Example 52]
SSTR4; [3]
  Ki: 1.39 to 172 nM
SSTR2
  Ki: 0.0536 to 6.58 nM
SSTR3
  Ki: 0.16 to 13.8 nM

## S1C(disialo)-SRIF28-amide [Example 44]
SSTR4; [2]
  Ki: 1.39 to 172 nM
SSTR2
  Ki: 0.0536 to 6.58 nM
SSTR3
  Ki: 0.16 to 13.8 nM

## A15C(disialo)-SRIF28 [Example 7]
SSTR4; [2]
  Ki: 1.39 to 172 nM
SSTR2
  Ki: 0.0536 to 6.58 nM
SSTR3
  Ki: 0.16 to 13.8 nM

## C(disialo)-C12 linker-SRIF14 [Example 19]
[1]; rats
  AUC increase compared to the non-glycosylated form SRIF14: 14-30 folds
  t1/2 extension compared to the non-glycosylated form SRIF14: 22-33 folds
